Laboratory results reported in patent US7498127 (dated 2009).

Target: T1, PLZF protein derivative with deletion of a region of Zn6 to Zn7 (UniProt Q05516 1-673)
T1 construct: Deletion construct; also called FLAG-tagged PLZF protein derivative 8); not shown: FLAG synthetic octapeptide tag (Sigma-Aldrich)
T1 sequence (looked up): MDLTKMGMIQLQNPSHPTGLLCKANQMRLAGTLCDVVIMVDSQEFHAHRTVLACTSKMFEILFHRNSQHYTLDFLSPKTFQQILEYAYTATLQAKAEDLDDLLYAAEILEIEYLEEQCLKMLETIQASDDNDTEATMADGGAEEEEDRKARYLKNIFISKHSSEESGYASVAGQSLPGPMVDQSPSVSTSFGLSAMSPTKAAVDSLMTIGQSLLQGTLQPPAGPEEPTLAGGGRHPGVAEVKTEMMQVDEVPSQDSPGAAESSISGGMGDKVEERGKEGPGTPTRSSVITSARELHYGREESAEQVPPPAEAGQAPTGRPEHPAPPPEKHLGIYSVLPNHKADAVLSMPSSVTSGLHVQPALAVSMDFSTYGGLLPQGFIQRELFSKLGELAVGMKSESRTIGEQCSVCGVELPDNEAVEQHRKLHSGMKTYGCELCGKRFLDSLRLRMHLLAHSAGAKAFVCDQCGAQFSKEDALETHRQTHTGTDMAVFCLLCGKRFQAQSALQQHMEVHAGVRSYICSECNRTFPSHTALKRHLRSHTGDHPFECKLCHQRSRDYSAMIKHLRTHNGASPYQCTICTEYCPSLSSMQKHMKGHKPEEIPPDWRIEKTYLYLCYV
Test: GST pull-down, anti-FLAG immunoblot

B1: GST binding HB-EGF remaining fragment (other, UniProt P08515 1-218, looked up)
chain: MSPILGYWKIKGLVQPTRLLLEYLEEKYEEHLYERDEGDKWRNKKFELGLEFPNLPYYIDGDVKLTQSMAIIRYIADKHNMLGGCPKERAEISMLEGAVLDIRYGVSRIAYSKDFETLKVDFLSKLPEMLKMFEDRLCHKTYLNGDHVTHPDFMLYDALDVVLYMDPMCLDAFPKLVCFKKRIEAIPQIDKYLKSSKYIAWPLQGWQATFGGGDHPPKRYHRRGGYDVENEEKVKLGMTNSH
notes: also called remaining fragments of HB-EGF
binding result: no binding
